Experimental findings from patent US8952162B2, “Triazolopyridines as phosphodiesterase inhibitors for treatment of dermal diseases” (Leo Pharma A/S, priority 2008, dated 2015) are described below.

By UniProt entry, the sequences of proteins in these tests, tags left out. Residues count along the entry.
UniProt Q08499, 1-673 isoform 2: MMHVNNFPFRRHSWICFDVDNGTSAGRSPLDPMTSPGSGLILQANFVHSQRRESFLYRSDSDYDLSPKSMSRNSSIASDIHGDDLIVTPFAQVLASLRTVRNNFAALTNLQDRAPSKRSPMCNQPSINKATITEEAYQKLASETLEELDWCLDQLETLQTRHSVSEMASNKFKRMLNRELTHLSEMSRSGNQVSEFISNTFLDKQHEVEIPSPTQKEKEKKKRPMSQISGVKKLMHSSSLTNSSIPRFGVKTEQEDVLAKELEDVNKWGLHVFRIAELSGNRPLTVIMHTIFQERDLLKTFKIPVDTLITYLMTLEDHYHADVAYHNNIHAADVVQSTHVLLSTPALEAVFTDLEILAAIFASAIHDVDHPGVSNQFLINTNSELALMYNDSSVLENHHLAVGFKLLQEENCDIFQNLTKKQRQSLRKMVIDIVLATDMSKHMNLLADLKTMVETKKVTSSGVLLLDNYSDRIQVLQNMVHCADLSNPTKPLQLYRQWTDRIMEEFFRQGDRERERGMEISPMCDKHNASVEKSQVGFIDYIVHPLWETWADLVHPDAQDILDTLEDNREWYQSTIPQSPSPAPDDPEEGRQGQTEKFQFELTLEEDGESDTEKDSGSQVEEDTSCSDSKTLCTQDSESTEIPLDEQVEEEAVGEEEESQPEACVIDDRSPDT

As usually defined, the IC50 is the point on the concentration scale where inhibition reaches its midpoint.

The target in this experiment is Human recombinant PDE4 (Genbank accession no NM—006203) (Homo sapiens, UniProt Q08499). The experiment in a line: PDE4 assay (SPA, cAMP cleavage). Conditions: read-out: PDE4 IC50 range; Example 52; human recombinant PDE4, 1 hour incubation, cAMP 1×10^-5M, test compound up to 10 μM.

Some results are limits rather than exact numbers.

Turning to `COc1ccc(-c2cccc(C(=O)N(C)C)c2)n2nc(C3CC3)nc12`, the IC50 lay in the range of 500 to 1000 nM.
In the case of `CNC(=O)c1ccc(-c2ccc(OC)c3nc(C4CC4)nn23)cc1`, the half-maximal inhibitory concentration (IC50) is more than 1000 nM.
For `COc1ccc(-c2cccc(CO)c2)n2nc(C3CC3)nc12`, the IC50 was less than 500 nM.
For the compound `COc1ccc(-c2cccc(C(N)=O)c2)n2nc(C3CC3)nc12`, the IC50 was less than 500 nM.
`COc1ccc(-c2ccc(C(=O)N(C)C)cc2)n2nc(C3CC3)nc12`: the 50% inhibitory concentration (IC50) was more than 1000 nM.
